From US6974824B2, “Kappa opioid receptor ligands” (Research Triangle Institute, priority 2001, dated 2005)
Read-outs that look alike come from different tables or passages of the source.

Amino acid sequences for entries named in this document (tags omitted).
UniProt P41143, whole entry: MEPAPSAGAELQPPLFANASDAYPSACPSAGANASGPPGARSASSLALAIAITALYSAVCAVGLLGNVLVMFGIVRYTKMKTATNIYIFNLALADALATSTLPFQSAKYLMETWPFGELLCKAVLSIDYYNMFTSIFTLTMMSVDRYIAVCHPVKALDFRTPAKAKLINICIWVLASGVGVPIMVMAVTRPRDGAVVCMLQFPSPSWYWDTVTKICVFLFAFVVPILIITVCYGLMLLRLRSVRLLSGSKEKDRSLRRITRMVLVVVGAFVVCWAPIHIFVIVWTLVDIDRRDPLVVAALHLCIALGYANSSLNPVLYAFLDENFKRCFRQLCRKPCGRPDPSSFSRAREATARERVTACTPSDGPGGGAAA
UniProt P35372, whole entry: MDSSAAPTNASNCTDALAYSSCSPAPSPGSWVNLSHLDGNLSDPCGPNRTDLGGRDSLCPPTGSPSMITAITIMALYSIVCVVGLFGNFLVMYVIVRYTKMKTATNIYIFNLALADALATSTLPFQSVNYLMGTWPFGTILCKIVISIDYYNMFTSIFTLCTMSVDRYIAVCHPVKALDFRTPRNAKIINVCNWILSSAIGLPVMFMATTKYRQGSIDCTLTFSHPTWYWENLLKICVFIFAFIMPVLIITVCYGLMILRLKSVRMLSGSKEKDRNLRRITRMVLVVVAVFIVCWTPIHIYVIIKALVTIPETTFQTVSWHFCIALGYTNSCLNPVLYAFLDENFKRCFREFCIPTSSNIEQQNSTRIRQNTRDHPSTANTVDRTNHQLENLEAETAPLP

Legend:
[1] = target: cloned human delta opioid receptor (Homo sapiens, UniProt P41143); test: Inhibition of SNC-80-stimulated [35S]GTP-γ-S binding in cloned human opioid receptors; type: biochemical; conditions: SNC80 (10 μM)-stimulated (footnote b), read-out: Apparent Functional Ki (nM ± SD) δ DADLE
[2] = target: cloned human mu opioid receptor (Homo sapiens, UniProt P35372); test: Inhibition of DAMGO-stimulated [35S]GTP-γ-S binding in cloned human opioid receptors; type: biochemical; conditions: DAMGO (10 μm)-stimulated, read-out: Apparent Functional Ki (nM ± SD) μ DAMGO
mu opioid receptor = mu opioid receptor (UniProt P33535); test: Radioligand competitive binding, [3H]DAMGO

Q: Which Ki [1] does the source give for `CC(C)[C@@H](CN1CC[C@@](C)(c2cccc(O)c2)[C@@H](C)C1)NC(=O)[C@H]1Cc2ccc(O)cc2CN1` [Compound 14, (3R)-7-Hydroxy-N-((1S)-1-{[(3R,4R)-4-(3-hydroxyphenyl)-3,4-dimethyl-1-piperidinyl]methyl}-2-methylpropyl)-1,2,3,4-tetrahydro-3-isoquinolinecarboxamide] here?
A: > 100 nM

Q: What about the Ki [2] of the same compound?
A: 3.42 ± 0.83 nM

Q: Which Ki (mu opioid receptor; read-out: K1 (nM ± SD) μ [3H]DAMGO) does the source give for `Oc1ccc2c3c1O[C@H]1c4[nH]c5c(c4C[C@@]4(O)[C@@H](C2)N(CC2CC2)CC[C@]314)C[C@@]1(O)[C@H]2Cc3ccc(O)c4c3[C@@]1(CCN2CC1CC1)[C@H]5O4` [6, nor-BNI, nor-binaltorphimine, reference compound] here?
A: 65.1 ± 5.6 nM

Q: And the Ki (mu opioid receptor; read-out: K1 (nM ± SD) μ [3H]DAMGO, listed as nor-BNI (6))?
A: 65 nM
